Results on one molecule are retold here after BindingDB's records for doi:10.1021/jm970815r (Eisai, 1998).

This assay can be described thus: Inhibition of Phosphodiesterase 5 from porcine platelets.

For the molecule `O=C(O)C1CCN(c2nc(NCc3ccc4c(c3)OCO4)c3cc(Cl)ccc3n2)CC1` [Sodium; 1-{4-[(benzo[1,3]dioxol-5-ylmethyl)-amino]-6-chloro-quinazolin-2-yl}-piperidine-4-carboxylate], it took 8.6 nM to reach half-maximal inhibition (IC50).
